The values that follow are results of earlier work, collected in patent publication US20030232064A1.

This is a selection: effects in other tests are not listed, and their absence says nothing.

The conditions of this data set: stored under pressure in cylinders.

As for `FCOC(C(F)(F)F)C(F)(F)F`, the “storage period without measurable degradation” value is listed as 5-7 years.
